From patent US4877782A, “Zinc ceftiofur complexes” (The Upjohn Company, priority 1988, dated 1989)

Legend:
bulk density = assay type: physicochemical; details: zinc ceftiofur sodium complex from water vs. ceftiofur sodium salt
[1] = dissolution rate in water; assay type: physicochemical; details: comparable equilibration conditions, zinc complex unmicronized

## zinc ceftiofur sodium complex [Compound I]
Bulk density
  bulk density: about 0.19 g./ml.
[1]
  solubility in water after 20 minutes: 47%
